In BindingDB's records for doi:10.1073/pnas.0606956103 (Targegen, 2006) one finds IC50 data, which are given here for one molecule.

Protein sequences, listed by entry. Tags and fused reporters are not part of them. Lines headed by an entry give the natural chain unless they say otherwise; changes in a name come on top.
UniProt P42338: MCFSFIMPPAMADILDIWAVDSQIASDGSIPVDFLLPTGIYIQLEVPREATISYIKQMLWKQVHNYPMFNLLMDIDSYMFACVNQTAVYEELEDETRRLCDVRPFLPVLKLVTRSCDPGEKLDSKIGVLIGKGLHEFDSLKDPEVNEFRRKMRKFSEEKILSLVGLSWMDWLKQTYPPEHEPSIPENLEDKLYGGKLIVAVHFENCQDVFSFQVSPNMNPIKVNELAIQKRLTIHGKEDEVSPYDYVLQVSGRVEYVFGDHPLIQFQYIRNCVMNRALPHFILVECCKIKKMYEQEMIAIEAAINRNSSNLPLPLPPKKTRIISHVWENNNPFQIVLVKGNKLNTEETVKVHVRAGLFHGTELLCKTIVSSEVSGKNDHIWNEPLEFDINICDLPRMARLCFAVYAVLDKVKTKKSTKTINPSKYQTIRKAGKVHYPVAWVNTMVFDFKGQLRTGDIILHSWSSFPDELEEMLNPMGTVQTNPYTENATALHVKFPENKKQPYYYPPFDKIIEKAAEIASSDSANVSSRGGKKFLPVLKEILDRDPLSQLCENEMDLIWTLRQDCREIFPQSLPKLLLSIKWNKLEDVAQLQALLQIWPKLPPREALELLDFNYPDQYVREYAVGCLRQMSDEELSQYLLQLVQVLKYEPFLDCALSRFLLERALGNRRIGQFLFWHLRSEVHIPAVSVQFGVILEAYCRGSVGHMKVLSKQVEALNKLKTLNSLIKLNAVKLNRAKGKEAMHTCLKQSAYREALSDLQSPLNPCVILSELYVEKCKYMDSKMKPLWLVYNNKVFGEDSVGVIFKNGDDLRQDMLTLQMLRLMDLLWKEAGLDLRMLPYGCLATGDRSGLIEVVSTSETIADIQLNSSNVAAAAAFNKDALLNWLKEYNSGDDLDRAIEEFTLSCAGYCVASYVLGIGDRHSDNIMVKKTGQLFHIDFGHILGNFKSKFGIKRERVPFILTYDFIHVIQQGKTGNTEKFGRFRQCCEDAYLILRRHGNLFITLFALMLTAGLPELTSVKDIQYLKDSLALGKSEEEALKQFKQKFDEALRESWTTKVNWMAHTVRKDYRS

In this test the target is Phosphatidylinositol 3-kinase regulatory subunit alpha/4,5-bisphosphate 3-kinase catalytic subunit beta isoform (Homo sapiens, UniProt P42338). The test can be described thus: Determination of PI3K Activity. The conditions noted are these: pH 7.4; 22 °C.

The IC50 is the concentration that inhibits the measured activity by half. The molecule `O=c1cc(N2CCOCC2)oc2c(-c3ccccc3)cccc12` showed a concentration for half-maximal inhibition (IC50) of 858 nM.
